These are literature values, as cited in US10010502B2, “Device that delivers a sustained low-dose of a myopia-suppressing drug, while preserving pupillary function and accommodation” (AMORPHEX THERAPEUTICS LLC, priority 2015, dated 2018).

This series has as its system myopia progression. The conditions noted are these: in vivo.

The structures appear in SMILES notation.

As for `CCCN1CCC[C@@H]2Cc3n[nH]cc3C[C@H]21` [quinpirole], the “myopia progression in animal models” value is “retard myopia progression”.
